Source: publication PMC6355801, “The compound TB47 is highly bactericidal against Mycobacterium ulcerans in a Buruli ulcer mouse model” (Nature Communications, 2019)

System: M. smegmatis
Experiment: MIC by microplate Alamar blue assay, M. smegmatis wild-type and recombinant strains
Details: M. smegmatis before deletion of cydAB (wild-type)

Structure (SMILES): COc1ccn2nc(C)c(C(=O)NCc3ccc(N4CCC(c5ccc(OC(F)(F)F)cc5)CC4)cc3)c2c1 [TB47]
- MIC: 50 mg/L
